This passage reports IC50 results from ChEMBL document CHEMBL1641477, “Shp2 protein tyrosine phosphatase inhibitor activity of estramustine phosphate and its triterpenoid analogs” (Bioorg Med Chem Lett, 2011).

This test deals with T1, Tyrosine-protein phosphatase non-receptor type 1 (Homo sapiens, UniProt P18031).
T1 sequence (P18031 whole entry): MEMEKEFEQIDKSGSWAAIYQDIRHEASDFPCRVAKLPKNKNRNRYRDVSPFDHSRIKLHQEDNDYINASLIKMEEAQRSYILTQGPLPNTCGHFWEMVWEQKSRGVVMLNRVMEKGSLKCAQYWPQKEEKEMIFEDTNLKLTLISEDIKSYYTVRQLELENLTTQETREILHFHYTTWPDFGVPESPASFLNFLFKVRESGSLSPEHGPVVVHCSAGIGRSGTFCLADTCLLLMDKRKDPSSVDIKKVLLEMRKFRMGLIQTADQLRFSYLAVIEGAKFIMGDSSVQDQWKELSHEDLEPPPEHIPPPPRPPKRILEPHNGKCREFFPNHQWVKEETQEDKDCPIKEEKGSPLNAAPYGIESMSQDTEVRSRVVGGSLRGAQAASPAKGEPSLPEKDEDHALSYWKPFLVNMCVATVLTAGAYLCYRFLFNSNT
Briefly: Inhibition of recombinant PTP1B.

As to `CC1(C)[C@@H](O)CC[C@]2(C)[C@H]3C(=O)C=C4[C@@H]5C[C@@](C)(C(=O)O)CC[C@]5(C)CC[C@@]4(C)[C@]3(C)CC[C@@H]12` [ENOXOLONE], the IC50 worked out at 45.8 µM.
